From PubChem BioAssay AID651658 (Broad Institute, 2012)
This is a selection; strong and weak results do not stand in their true shares. Active and inactive are the calls of the source.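 How the source made its calls: active means mean Tm shift, scaled 0 neutral to 100 positive control, at about 1.3% or above, every replicate too (limit read from the data); inconclusive means no clear call, values can overlap the other calls; inactive means the rest.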

The chains behind the UniProt entries cited, without tags or fusion partners.
UniProt Q9HCT0, whole entry: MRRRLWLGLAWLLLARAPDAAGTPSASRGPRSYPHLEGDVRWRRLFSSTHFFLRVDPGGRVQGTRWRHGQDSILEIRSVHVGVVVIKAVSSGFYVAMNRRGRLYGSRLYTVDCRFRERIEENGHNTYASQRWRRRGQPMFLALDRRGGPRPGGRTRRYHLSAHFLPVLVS

The molecules below were run against Fibroblast growth factor 22 (Homo sapiens) (UniProt Q9HCT0) (assay: binders of human FGF22 protein, primary screen, FGF22 synaptogenesis inhibitor project, biophysical, thermal shift, single point (AID 651658)). Conditions: recombinant FGF22 thermal shift, SYPRO orange fluorescence; at 9.99 µM; active compounds read high; percent of sucrose octasulfate shift, DMSO zero.

Compound | activity (Tm shift, normalised)
O=c1[nH]c2ccccc2n1C1CCN(C(c2cccs2)c2nnnn2C2CCCC2)CC1 (stereo unspecified) | inactive: -0.665%
CCCCn1nnnc1C(c1cccc(OC)c1OC)N1CCC(n2c(=O)[nH]c3ccccc32)CC1 (stereo unspecified) | inactive: -0.173%
COc1cccc(C(c2nnnn2C(C)(C)C)N2CCC(n3c(=O)[nH]c4ccccc43)CC2)c1OC (stereo unspecified) | inactive: 0.513%
CCOC(=O)N1CCC(Nc2ccc(C)cc2)CC1 | inactive: -0.587%
O=c1[nH]c2ccccc2n1C1CCN(C(c2cccs2)c2nnnn2C2CCCCC2)CC1 (stereo unspecified) | inactive: -0.575%
COc1ccc(C(=O)NCC2(N3CCOCC3)CCCCC2)cc1OC | inactive: 0.011%
O=c1[nH]c2ccccc2n1C1CCN(C(c2ccnc3ccccc23)c2nnnn2C2CCCC2)CC1 (stereo unspecified) | inactive: -0.283%
CCCCn1nnnc1C(c1ccccc1)N1CCC(n2c(=O)[nH]c3ccccc32)CC1 (stereo unspecified) | inactive: 0.348%
COc1cc(C(=O)NCC2(N3CCOCC3)CCCCC2)cc(OC)c1C | inactive: -0.554%
O=C(NCC1(N2CCOCC2)CCCCC1)c1cc(Br)ccc1Cl | inactive: -0.138%
CC(C)(C)n1nnnc1C(c1cccc2ccccc12)N1CCC(n2c(=O)[nH]c3ccccc32)CC1 (stereo unspecified) | inactive: -0.344%
CN(C)C1(CNC(=O)c2cccc(C#N)c2)CCCCC1 | inactive: 0.466%
C/C(N)=N\P(=O)(Oc1ccccc1)Oc1ccccc1 | inactive: -0.611%
Cc1cc(N(CCCl)CCCl)ccc1C=O | inactive: 0.13%
CCCN1CCC(Nc2cc(OC)cc(OC)c2)CC1 | inactive: -0.694%
O=c1[nH]c2ccccc2n1C1CCN(C(c2ccccc2)c2nnnn2C2CCCC2)CC1 (stereo unspecified) | inactive: -0.309%
N#Cc1ccc(C(=O)NCC2(N3CCCCC3)CCCCC2)cc1 | inactive: 0.06%
CC(C)(C)OC(=O)N1CCC(N(C(=O)c2ccccc2)c2ccc(Cl)cc2)CC1 | inactive: -0.366%
O=C(NCC1(N2CCCCC2)CCCCC1)c1ccco1 | inactive: -0.235%
Cn1c(=O)[nH]cc(N(CCCl)CCCl)c1=O | inactive: -0.299%
CN(C)c1ccc(C(=O)NCC2(N3CCCCC3)CCCCC2)cc1 | inactive: 0.101%
Cc1ccccc1NC1(C#N)CCN(Cc2ccccc2)CC1 | inactive: 0.989%
CC(C)(C)n1nnnc1C(c1ccnc2ccccc12)N1CCC(n2c(=O)[nH]c3ccccc32)CC1 (stereo unspecified) | inactive: 0.307%
COc1ccc(C(c2nnnn2C2CCCCC2)N2CCC(n3c(=O)[nH]c4ccccc43)CC2)cc1 (stereo unspecified) | inactive: 0.228%

Compound | activity (Tm shift, normalised)
Cc1ccc(C(=O)NCC2(N3CCCCC3)CCCCC2)o1 | inactive: -0.205%
Fc1ccccc1NC1CCN(Cc2ccccc2)CC1 | inactive: 0.315%
Cc1ccc(NC2(C#N)CCN(Cc3ccccc3)CC2)cc1 | inactive: -0.222%
CC(=O)N(c1ccccc1)C1CCNCC1 | inactive: -0.032%
COc1cccc(C(c2nnnn2C2CCCCC2)N2CCC(n3c(=O)[nH]c4ccccc43)CC2)c1OC (stereo unspecified) | inactive: -0.195%
CCC(c1nnnn1C1CCCCC1)N1CCC(n2c(=O)[nH]c3ccccc32)CC1 (stereo unspecified) | inactive: 40.8%
O=c1[nH]c2ccccc2n1C1CCN(C(c2ccnc3ccccc23)c2nnnn2C2CCCCC2)CC1 (stereo unspecified) | inactive: -0.353%
COc1cc(OC)cc(C(=O)NCC2(N3CCCCC3)CCCCC2)c1 | inactive: -0.164%
CN1CCC(Nc2ccc(Cl)cc2)CC1 | inactive: 0.267%
COc1cccc(C(=O)N(c2cc(C)cc(C)c2)C2CCN(C(=O)OC(C)(C)C)CC2)c1 | inactive: -0.222%
COc1cc(OC)cc(C(=O)NCC2(N3CCOCC3)CCCCC2)c1 | inactive: 42.7%
COc1cccc(C(c2nnnn2C2CCCC2)N2CCC(n3c(=O)[nH]c4ccccc43)CC2)c1OC (stereo unspecified) | inactive: -0.165%
CC(C)(C)OC(=O)N1CCC(Nc2ccccc2)CC1 | inactive: 42.8%
NN(c1ccccc1)C1CCN(CCc2ccccc2)CC1 | inactive: -0.384%
O=C(O)C1(Nc2ccccc2)CCN(Cc2ccccc2)CC1 | inactive: -0.134%
CCCOc1ccc(C(=O)NCC2(N(C)C)CCCCC2)cc1 | inactive: -0.218%
O=c1[nH]c2ccccc2n1C1CCN(C(c2cc3ccccc3o2)c2nnnn2C2CCCC2)CC1 (stereo unspecified) | inactive: -0.131%
CN1CCC(Nc2ccc(F)c(Cl)c2)CC1 | inactive: -0.356%
O=c1[nH]c2ccccc2n1C1CCN(C(c2cc3ccccc3o2)c2nnnn2C2CCCCC2)CC1 (stereo unspecified) | inactive: -0.104%
O=C(OC1CN2CCC1CC2)C1c2ccccc2Oc2ccccc21 (stereo unspecified) | inactive: 0.029%
O=C(NCC1(N2CCCCC2)CCCCC1)c1ccc(Cl)s1 | inactive: 0.097%
N#CC1(Nc2ccccc2)CCN(Cc2ccccc2)CC1 | inactive: 0.171%
COc1ccc(Cl)cc1C(=O)NCC1(N2CCOCC2)CCCCC1 | inactive: -0.257%
CCCCn1nnnc1C(c1ccc(OC)cc1)N1CCC(n2c(=O)[nH]c3ccccc32)CC1 (stereo unspecified) | inactive: -0.483%

Compound | activity (Tm shift, normalised)
O=c1[nH]c2ccccc2n1C1CCN(C(c2ccccc2OC(F)(F)F)c2nnnn2C2CCCCC2)CC1 (stereo unspecified) | inactive: -0.734%
O=C(NCC1(N2CCCCC2)CCCCC1)c1ccc(Cl)nc1 | inactive: 0.122%
Cc1cc(C)cc(N(C(=O)c2ccccc2)C2CCN(C(=O)OC(C)(C)C)CC2)c1 | inactive: 0.097%
CSc1ccccc1C(=O)NCC1(N2CCCCC2)CCCCC1 | inactive: 41%
Cc1cccc(NC2(C#N)CCN(Cc3ccccc3)CC2)c1 | inactive: 0.156%
COc1ccc(C(=O)NCC2(N3CCCCC3)CCCCC2)cc1 | inactive: 0.285%
CCC(c1nnnn1C1CCCC1)N1CCC(n2c(=O)[nH]c3ccccc32)CC1 (stereo unspecified) | inactive: -0.05%
CC(C)(C)OC(=O)N1CCC(N(C(=O)c2ccccc2)c2ccc(F)cc2)CC1 | inactive: -0.152%
COc1ccc(C(=O)NCC2(N3CCCCC3)CCCCC2)c(OC)c1OC | inactive: 0.314%
O=C(NCC1(N2CCCCC2)CCCCC1)c1ccc(=O)[nH]c1 | inactive: -0.169%
CCCCn1nnnc1C(c1cccs1)N1CCC(n2c(=O)[nH]c3ccccc32)CC1 (stereo unspecified) | inactive: 0.533%
O=C(NCC1(N2CCCCC2)CCCCC1)c1cccs1 | inactive: -0.563%
CCCCn1nnnc1C(CC)N1CCC(n2c(=O)[nH]c3ccccc32)CC1 (stereo unspecified) | inactive: 0.058%
COc1cc(C(=O)NCC2(N(C)C)CCCCC2)ccc1OC(F)F | inactive: -0.127%
CCOC(=O)N1CCC(Nc2cccc(C)c2)CC1 | inactive: -0.265%
O=c1[nH]c2ccccc2n1C1CCN(C(c2cccc3ccccc23)c2nnnn2C2CCCC2)CC1 (stereo unspecified) | inactive: -0.222%
O=c1[nH]c2ccccc2n1C1CCN(C(c2ccccc2)c2nnnn2C2CCCCC2)CC1 (stereo unspecified) | inactive: -0.612%
O=C(NCC1(N2CCCCC2)CCCCC1)c1ccc(F)cc1 | inactive: -0.314%
CCCCOc1ccc(C(=O)NCC2(N3CCOCC3)CCCCC2)cc1 | inactive: -0.274%
CCCCn1nnnc1C(c1cc2ccccc2o1)N1CCC(n2c(=O)[nH]c3ccccc32)CC1 (stereo unspecified) | inactive: 0.353%
O=P1(N(CCCl)CCCl)SCCCS1 | inactive: 0.147%
CCOC(=O)N1CCC(Nc2ccc(F)cc2)CC1 | inactive: 0.044%
CC(C)(C)n1nnnc1C(c1ccccc1)N1CCC(n2c(=O)[nH]c3ccccc32)CC1 (stereo unspecified) | inactive: 0.001%
O=C1CCN(Cc2ccccc2)CC1 | inactive: 0.274%

Compound | activity (Tm shift, normalised)
CCOc1ccc(C)cc1CN(CCCl)CCCl | inactive: 0.275%
COc1cc(C(=O)NCC2(N3CCCCC3)CCCCC2)ccc1OC(F)F | inactive: -0.076%
CCCCn1nnnc1C(c1cccc2ccccc12)N1CCC(n2c(=O)[nH]c3ccccc32)CC1 (stereo unspecified) | inactive: -0.126%
CC(C)c1ccc(C(=O)NCC2(N3CCOCC3)CCCCC2)cc1 | inactive: -0.422%
COc1ccc(NC2CCN(C(=O)OC(C)(C)C)CC2)cc1 | inactive: 0.287%
CN1CCN(CCOC(=O)C(O)(c2ccccc2)c2ccccc2)CC1 | inactive: -0.444%
O=C(NCC1(N2CCCCC2)CCCCC1)c1cccc(C(F)(F)F)c1 | inactive: 0.055%
CCN1CCC(Nc2ccc(Cl)cc2)CC1 | inactive: -0.3%
O=c1[nH]c2ccccc2n1C1CCN(C(c2ccccc2OC(F)(F)F)c2nnnn2C2CCCC2)CC1 (stereo unspecified) | inactive: -0.349%
O=C(NCC1(N2CCCCC2)CCCCC1)c1cccc([N+](=O)[O-])c1 | inactive: 0.106%
CSc1ccc(C(=O)NCC2(N3CCOCC3)CCCCC2)cc1 | inactive: -0.194%
CC(C)(C)n1nnnc1C(c1ccccc1OC(F)(F)F)N1CCC(n2c(=O)[nH]c3ccccc32)CC1 (stereo unspecified) | inactive: -0.222%
O=C(NCC1(N2CCCCC2)CCCCC1)c1ccc(OC(F)F)cc1 | inactive: 0.208%
COc1ccc(C(c2nnnn2C2CCCC2)N2CCC(n3c(=O)[nH]c4ccccc43)CC2)cc1 (stereo unspecified) | inactive: -0.287%
Cc1ccc(C(=O)NCC2(N(C)C)CCCCC2)o1 | inactive: -0.312%
CCCOc1ccc(C(=O)NCC2(N(C)C)CCCCC2)cc1OC | inactive: -0.264%
O=C(NCC1(N2CCCCC2)CCCCC1)c1cncc(Br)c1 | inactive: 0.103%
CN1CCC(Nc2cccc(F)c2)CC1 | inactive: 0.122%
COc1cc(OC)c(C(=O)NCC2(N(C)C)CCCCC2)cc1OC | inactive: 0.272%
CCC(c1nnnn1C(C)(C)C)N1CCC(n2c(=O)[nH]c3ccccc32)CC1 (stereo unspecified) | inactive: 1.22%
O=C(NCC1(N2CCOCC2)CCCCC1)c1cc(F)c(F)cc1Cl | inactive: -0.067%
CCCCn1nnnc1C(c1ccnc2ccccc12)N1CCC(n2c(=O)[nH]c3ccccc32)CC1 (stereo unspecified) | inactive: 0.267%
CC(C)c1ccc(NC2CCN(C(=O)OC(C)(C)C)CC2)cc1 | inactive: 0.665%
CN(C)c1cccc(C(=O)NCC2(N3CCCCC3)CCCCC2)c1 | inactive: 0.031%
